From PMC3534778 (European journal of pharmacology, 2012)
Read-outs that look alike come from different tables or passages of the source.

Columns and labels:
NMDA receptor [1] = details: read-out: Ki, NMDA receptor; cited from earlier work
NMDA receptor [2] = format: binding, rat

Compound	Ki (NMDA receptor [1])	Ki (NMDA receptor [2])
CNC1(c2ccccc2Cl)CCCCC1=O (racemic) [(R,S)-Ketamine, reference compound]	0.53 µM	1.06 ± 0.14 µM
CN[C@@]1(c2ccccc2Cl)CCCCC1=O [(R)-Ketamine, (R)-ketamine, reference compound]	–	2.57 ± 0.28 µM
CN[C@]1(c2ccccc2Cl)CCCCC1=O [(S)-Ketamine, (S)-ketamine, reference compound]	–	0.69 ± 0.09 µM
